The test has as its target Amine oxidase [flavin-containing] B (Bos taurus, UniProt P56560). Type of test: mitochondria, Mitochondria.

Chains of the proteins cited; added tags and fusions are not shown.
UniProt P56560, whole entry: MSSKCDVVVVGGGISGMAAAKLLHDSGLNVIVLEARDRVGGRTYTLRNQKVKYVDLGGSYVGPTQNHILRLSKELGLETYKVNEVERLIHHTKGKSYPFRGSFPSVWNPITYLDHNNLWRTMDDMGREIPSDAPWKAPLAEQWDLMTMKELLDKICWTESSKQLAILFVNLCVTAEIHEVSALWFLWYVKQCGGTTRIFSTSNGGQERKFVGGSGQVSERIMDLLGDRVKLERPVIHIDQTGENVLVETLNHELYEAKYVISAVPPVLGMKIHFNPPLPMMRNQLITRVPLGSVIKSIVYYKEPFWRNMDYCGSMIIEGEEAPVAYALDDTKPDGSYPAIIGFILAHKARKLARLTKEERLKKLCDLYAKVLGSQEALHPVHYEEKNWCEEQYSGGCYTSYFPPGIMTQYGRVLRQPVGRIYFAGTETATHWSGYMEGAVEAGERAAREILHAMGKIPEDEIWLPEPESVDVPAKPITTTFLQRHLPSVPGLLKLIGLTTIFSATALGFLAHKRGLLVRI

The Ki is a measure of affinity in units of concentration, obtained from inhibition or displacement. Low values mean higher affinity, high ones lower affinity. As for `COc1ccc(/C=N/Nc2nc(C)cs2)cc1OC`, the Ki is 7.08 nM. In the case of `COc1ccc(/C=N/Nc2nc(-c3ccccc3)cs2)cc1OC`, affinity was put at a Ki of 20.4 nM. In the case of `Cc1csc(N/N=C/c2ccc(Cl)cc2)n1` it was 9.12 nM.

Regarding `Cc1csc(N/N=C/c2ccc(Cl)cc2Cl)n1`, the affinity, expressed as Ki, was 17 nM.

Take `COc1ccc(/C=N/Nc2nc(-c3ccccc3)cs2)cc1`: the Ki was 132 nM. This Ki is about 7.8-fold higher than that of the compound before.

In the case of `C(=N\Nc1nc(-c2ccccc2)cs1)/c1ccccc1`, the affinity corresponds to a Ki of 91.2 nM. Next, `Cc1csc(N/N=C/c2ccccc2)n1`: 1.32 nM; `COc1ccc(/C=N/Nc2nc(C)cs2)cc1`: 4.07 nM; `Clc1ccc(/C=N/Nc2nc(-c3ccccc3)cs2)c(Cl)c1`: 132 nM. Next, `Clc1ccc(/C=N/Nc2nc(-c3ccccc3)cs2)cc1`: 170 nM.

(Values after ChEMBL document CHEMBL1141379, “Selective inhibitory activity against MAO and molecular modeling studies of 2-thiazolylhydrazone derivatives” (J Med Chem, 2007).)
